Assay results published in PMC6314479 (Nature chemical biology, 2017).

Protein sequences, listed by entry. Tags and fused reporters are not part of them.
UniProt Q93009, whole entry: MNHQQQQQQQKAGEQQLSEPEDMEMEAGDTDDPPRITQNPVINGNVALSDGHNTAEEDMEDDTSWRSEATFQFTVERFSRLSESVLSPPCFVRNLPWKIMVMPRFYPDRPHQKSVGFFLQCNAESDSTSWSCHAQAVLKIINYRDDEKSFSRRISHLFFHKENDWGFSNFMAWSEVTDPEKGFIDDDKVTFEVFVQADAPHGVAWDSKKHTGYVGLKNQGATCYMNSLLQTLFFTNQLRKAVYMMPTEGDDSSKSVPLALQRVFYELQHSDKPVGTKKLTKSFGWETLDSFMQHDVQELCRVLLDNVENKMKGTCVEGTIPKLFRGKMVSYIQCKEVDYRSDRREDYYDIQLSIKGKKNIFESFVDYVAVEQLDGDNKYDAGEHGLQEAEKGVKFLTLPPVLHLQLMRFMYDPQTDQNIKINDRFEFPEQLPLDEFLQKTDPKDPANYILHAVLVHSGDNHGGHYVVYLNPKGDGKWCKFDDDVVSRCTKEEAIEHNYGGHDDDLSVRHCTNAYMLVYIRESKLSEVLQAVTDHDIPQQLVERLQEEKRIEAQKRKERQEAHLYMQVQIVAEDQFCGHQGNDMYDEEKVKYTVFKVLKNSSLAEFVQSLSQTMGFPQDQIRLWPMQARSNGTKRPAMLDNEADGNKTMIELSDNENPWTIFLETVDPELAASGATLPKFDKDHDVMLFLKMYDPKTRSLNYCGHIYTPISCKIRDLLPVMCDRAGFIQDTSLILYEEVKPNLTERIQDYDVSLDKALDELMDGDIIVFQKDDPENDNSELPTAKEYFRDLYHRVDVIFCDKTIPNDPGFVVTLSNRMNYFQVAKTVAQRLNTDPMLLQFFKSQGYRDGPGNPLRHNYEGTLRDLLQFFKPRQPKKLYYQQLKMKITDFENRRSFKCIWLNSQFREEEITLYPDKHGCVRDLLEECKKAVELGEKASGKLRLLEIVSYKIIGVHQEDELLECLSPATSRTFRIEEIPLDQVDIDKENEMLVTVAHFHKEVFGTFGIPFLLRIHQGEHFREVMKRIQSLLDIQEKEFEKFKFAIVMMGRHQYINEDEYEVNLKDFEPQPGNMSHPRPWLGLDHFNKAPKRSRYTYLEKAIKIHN

Key:
USP7 = USP7 (Homo sapiens, UniProt Q93009); experiment: MALDI-TOF DUB assay with diubiquitin as substrate, dose response; format: biochemical; settings: read-out: USP7 IC50
FLT3 = FLT3 degradation in HEK 293T cells; format: cell-based, human
[1] = test system: Ba/F3-FLT3-ITD, MOLM13-luc+ and MOLM14 cells; experiment: Drug combination study, combination index; format: cell-based; settings: with midostaurin or crenolanib, fixed-ratio; CI<1 = synergy
[2] = test system: Ba/F3-FLT3-ITD cells expressing TKD point mutations; experiment: Proliferation of Ba/F3-FLT3-ITD cells expressing TKD point mutations; format: cell-based, murine; settings: approximately 24 hr treatment

HBX19818
IC50 (USP7): 57 µM | concentration needed for FLT3 degradation relative to mutant FLT3-driven cells (FLT3): approximately 2 fold | combination index analysis of anti-proliferative effects [1]: synergistic | potency against TKD point mutants versus Ba/F3-FLT3-ITD cells [2]: equipotent
